Molecular target: LPA1 receptor (Homo sapiens (Human), UniProt Q92633)
Experiment: LPA-mediated Ca2+ mobilization, LPA1 RH7777 cells

Amino acid sequences for entries named in this document (tags omitted).
UniProt Q92633, whole entry: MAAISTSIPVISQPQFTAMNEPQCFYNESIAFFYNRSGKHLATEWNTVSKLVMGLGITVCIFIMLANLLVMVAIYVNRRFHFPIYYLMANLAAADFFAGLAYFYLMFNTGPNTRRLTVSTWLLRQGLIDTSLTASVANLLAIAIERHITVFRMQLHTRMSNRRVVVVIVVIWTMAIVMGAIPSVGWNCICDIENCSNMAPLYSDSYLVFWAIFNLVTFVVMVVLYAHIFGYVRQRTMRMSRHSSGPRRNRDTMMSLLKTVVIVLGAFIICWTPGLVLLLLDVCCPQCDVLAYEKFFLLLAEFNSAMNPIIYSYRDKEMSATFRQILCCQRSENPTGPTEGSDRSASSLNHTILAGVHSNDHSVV

CCCCCCCC/C=C\CCCCCCCC(=O)OCC(O)COP(=O)(O)O (centres unmarked)
Emax (% LPA), LPA1 RH7777 (normalized to LPA 18:1 Emax): 100.00 % LPA | EC50 (read-out: EC50 or IC50 (μM), LPA1 RH7777, EC50 of LPA 18:1 alone): 0.08 µM
